MITF act – activators of MITF-driven TRPM1 promoter reporter, primary screen, cell-based, SK-MEL-5, luciferase, single point | SK-MEL-5 TRPM1-promoter luciferase, 24 h; % of positive control, neutral wells = 0 | activation, % at 12.5 µM | 300,000 tested, 0.75% active;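 active = mean activation of at least 80% with every replicate also reaching 80%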
Wnt act – Wnt/beta-catenin pathway activators, primary screen, cell-based, plate reader, single point | Wnt/beta-catenin reporter cell assay, activator | AID 743398, 2014 | activation, % at 9.35 µM | 300,000 tested, 1.2% active; in the data active = activation above about 30%, passing the limit was not always enough
PGC1a acetyl inh – inhibitors of PGC1a acetylation signal, primary screen, cell-based, U2OS, AlphaScreen, inhibitor mode; 350,000 tested, 0.17% active; AlphaScreen anti-acetyl-lysine; with virally co-expressed GCN5 acetyltransferase; inhibition, % at 15.6 µM; AID 651687, 2012;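 active = every replicate shows inhibition of at least 40%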
Yeast UUG start-1 – alters start codon recognition fidelity in yeast. S. cerevisiae UUG-firefly luciferase reporter, luminescence/redox ratio. activity score, % at 18.7 µM. 0.13% of 350,000 active. AID 602363;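 active = replicate mean at a twofold rise or more, about +100% in these data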;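 also: firefly luciferase made from a UUG start codon reports start codon fidelity; reporter light over untreated wells divided by growth signal over untreated wells; some hits fall short of that in this replicate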
MITF TRPM1 inh – inhibitors of MITF-dependent TRPM1 promoter reporter, primary screen, cell-based, SK-MEL-5, single point, luciferase. inhibition, % at 12.5 µM. 330,000 tested, 0.83% active. AID 488899, 2010. SK-MEL-5 TRPM1 promoter luciferase, 24 h;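 active = mean inhibition across replicates of 60% or more, whatever share of single replicates reaches that level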
miR-122 sensor – miR-122 Renilla sensor signal increase in Huh7, primary screen, miR-122 inhibitor project, cell-based, single point, plate reader | 340,000 tested, 0.3% active | activation (reporter increase), % at 12.5 µM | Huh7 miR-122 Renilla luciferase sensor, 48 h; neutral wells = 0, positive control = 100 | AID 602342, 2012;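 active = mean replicate activation score at least 90 and every replicate individually at or above 90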;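 also: higher luciferase means less miR-122 activity so hits act as miR-122 inhibitors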
Yeast UUG start-2 – enhancers of UUG start codon usage in yeast, dose response, S. cerevisiae, UUG firefly luciferase, cherry-pick, set 2; shares compounds with Yeast UUG start-1; luminescence, 4 h; 100% means double the DMSO signal; activation, % at 38 µM; 540 tested, under 10 active; AID 652061, 2013;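 active = signal increase whose fitted curve reaches an absolute level of 40 at a concentration under 10 µM; inactive = activity opposite to the expected increase, or the rest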
Large screens that a line does not name were inactive (follow-up assays come after a bar, where they were run). Compounds with a hit are over-represented: about 2.1% of the library has one in this group of screens.

O=C(C[C@H]1CC[C@H](NC(=O)c2cccnc2)[C@@H](CO)O1)NCc1ccc(Cl)c(Cl)c1	none (no result: MITF act, Wnt act, MITF TRPM1 inh)
O=c1c2c(n3cnnc3n1-c1ccccc1)-c1ccccc1CC21CCCCC1	Yeast UUG start-1 active (no result: Wnt act) | Yeast UUG start-2 inactive
O=C1CCC(=O)N1OCCCOc1ccc2c(c1)CCC2	Yeast UUG start-1 active (no result: Wnt act) | Yeast UUG start-2 inactive
CC(C)CC#Cc1cnc2c(c1)C(=O)N([C@H](C)CO)C[C@@H](C)[C@H](CN(C)Cc1ccccn1)O2	Yeast UUG start-1 144.1 (no result: MITF act, Wnt act, MITF TRPM1 inh) | Yeast UUG start-2 inactive
C/C=C/c1cnc2c(c1)C(=O)N([C@H](C)CO)C[C@H](C)[C@@H](CN(C)C(=O)Cc1ccccn1)O2	none (no result: MITF act, Wnt act, MITF TRPM1 inh, miR-122 sensor)
C/C=C/c1cnc2c(c1)C(=O)N([C@@H](C)CO)C[C@@H](C)[C@@H](CN(C)C(=O)Cc1ccccn1)O2	Yeast UUG start-1 143.2 (no result: MITF act, Wnt act, MITF TRPM1 inh, miR-122 sensor) | Yeast UUG start-2 inactive
CCCc1cc(C(=O)N/N=C/c2ccc(CC)s2)c2ccccc2n1	Yeast UUG start-1 412.9 (no result: PGC1a acetyl inh) | Yeast UUG start-2 inactive
CCc1ccc(/C=N/NC(=O)c2cc(-c3ccncc3)nc3ccccc23)s1	none (no result: PGC1a acetyl inh, Yeast UUG start-1, miR-122 sensor)
CC=Cc1ccc2n(c1=O)C[C@H]1[C@H](CO)[C@@H](C(=O)NCC)[C@@H]2N1Cc1ccccc1 (mixture of isomers)	none (no result: MITF act, Wnt act, PGC1a acetyl inh, Yeast UUG start-1, MITF TRPM1 inh)
COc1ccc(NC(=O)N(C)C[C@H]2OCCCC[C@@H](C)Oc3ccc(NC(=O)Nc4ccc(C(F)(F)F)cc4)cc3C(=O)N([C@H](C)CO)C[C@@H]2C)cc1	none (no result: MITF act, Wnt act, MITF TRPM1 inh)
Cn1nccc1-c1ccc(C(=O)Nc2cccc(NS(C)(=O)=O)c2)c2occc12	none (no result: MITF act, MITF TRPM1 inh)
O=C(NCC1CC1)c1ccc(-n2ccnc2)c2ccoc12	Yeast UUG start-1 162.9 (no result: MITF act, MITF TRPM1 inh) | Yeast UUG start-2 inactive
CS(=O)(=O)Nc1cccc(NC(=O)c2ccc(-n3ccnc3)c3ccoc23)c1	Yeast UUG start-1 115.1 (no result: MITF act, MITF TRPM1 inh) | Yeast UUG start-2 inactive
O=C(C[C@@H]1CC[C@@H]2[C@H](COC[C@H](O)CN2S(=O)(=O)c2ccc(Cl)cc2)O1)NCCN1CCCC1	none (no result: MITF act, Wnt act, MITF TRPM1 inh)
CCN(CC)CCC#CC(O)(c1ccccc1)c1ccccc1	none (no result: PGC1a acetyl inh, Yeast UUG start-1, miR-122 sensor)
OC(C#CCN1CCCC1)(c1ccccc1)c1cccnc1 (stereo unspecified)	Yeast UUG start-1 133.6 (no result: MITF act) | Yeast UUG start-2 inactive
CCCN(CC#CC(O)(c1ccccc1)c1cccnc1)CCC (stereo unspecified)	none (no result: PGC1a acetyl inh, Yeast UUG start-1, miR-122 sensor) | Yeast UUG start-2 inactive
OC(C#CCN1CCCCCC1)(c1ccccc1)c1cccnc1 (stereo unspecified)	none (no result: PGC1a acetyl inh, Yeast UUG start-1, miR-122 sensor) | Yeast UUG start-2 inactive
CC(C)C(O)(C#CCN1CCCC1)c1ccccc1 (stereo unspecified)	none (no result: Wnt act, Yeast UUG start-1) | Yeast UUG start-2 inactive
C[C@H](CO)N1C[C@H](C)[C@H](CN(C)C(=O)Nc2cccc3ccccc23)Oc2c(NC(=O)c3cnccn3)cccc2C1=O	none (no result: MITF act, Wnt act, MITF TRPM1 inh)
Cc1ccccc1CN(C)C[C@@H]1OCc2cn(nn2)CCCC(=O)N([C@H](C)CO)C[C@@H]1C	none (no result: MITF act, Wnt act, MITF TRPM1 inh)
CCN(CC)CC#CC(OC)(c1ccccc1)c1ccccc1	none (no result: PGC1a acetyl inh, Yeast UUG start-1, miR-122 sensor) | Yeast UUG start-2 inactive
O=C(CN1CCCc2ccccc21)N/N=C/c1ccc(F)cc1F	none
O=C(CN1CCCc2ccccc21)N/N=C/c1ccccc1O	Yeast UUG start-1 66.9 | Yeast UUG start-2 inactive
Cc1cccc(NC(=O)Cc2cccs2)n1	Yeast UUG start-1 542.3 (no result: MITF act) | Yeast UUG start-2 inactive
O=C(NNc1c(Cl)cc(Cl)cc1Cl)c1n[nH]c(=O)c2ccccc12	Yeast UUG start-1 209.1 | Yeast UUG start-2 inactive
NNC(=O)c1n[nH]c(=O)c2ccccc12	none
CC12CCC(C(=O)N(CC(O)CN3CCN(Cc4ccccc4)CC3)C1=O)C2(C)C (stereo unspecified)	Yeast UUG start-1 102.1 (no result: MITF act, MITF TRPM1 inh) | Yeast UUG start-2 inactive
CCc1ccc(NC(=O)NCCN2CCCCC2)cc1	Yeast UUG start-1 107.6 (no result: MITF act) | Yeast UUG start-2 inactive
CCc1ccc(N2CCN(CCNC(=O)Nc3ccccc3)CC2)cc1	none
O=C(c1cc(Cl)cc(Cl)c1)N1CCC2CC1c1cc(-c3ccc4c(c3)OCO4)ccc12 (stereo unspecified)	Yeast UUG start-1 active | Yeast UUG start-2 inactive
O=C(C[C@@H]1CC[C@H]2[C@@H](COC[C@@H](O)CN2C(=O)c2ccc(F)cc2)O1)NCCCN1CCOCC1	none (no result: MITF act, Wnt act, MITF TRPM1 inh)
O=C(C1CCC1)N1C[C@@H]2[C@H](c3ccccc31)[C@H](CO)N2C(=O)c1ccccc1F	Yeast UUG start-1 195.0 (no result: MITF act, Wnt act, MITF TRPM1 inh) | Yeast UUG start-2 inactive
O=C(C1CCC1)N1C[C@H]2[C@@H](c3ccccc31)[C@H](CO)N2C(=O)c1ccccc1	Yeast UUG start-1 101.1 (no result: MITF act, Wnt act, MITF TRPM1 inh) | Yeast UUG start-2 inactive
CCCN1C[C@H](C)[C@@H](OC)CN(C)C(=O)c2cc(NC(=O)c3ccccc3F)ccc2OC[C@@H]1C	none (no result: MITF act, Wnt act, MITF TRPM1 inh)
CCCN1C[C@@H](C)[C@H](OC)CN(C)C(=O)c2cc(NC(=O)Nc3cccc(OC)c3)ccc2OC[C@@H]1C	none (no result: MITF act, Wnt act, Yeast UUG start-1, MITF TRPM1 inh)
Cc1ccc(S(=O)(=O)N[C@H]2CC[C@@H](CCNC(=O)c3ccc4c(c3)OCO4)O[C@@H]2CO)cc1	Yeast UUG start-1 169.7 (no result: MITF act, Wnt act, MITF TRPM1 inh, miR-122 sensor) | Yeast UUG start-2 inactive
COC(=O)Nc1ccc(S(=O)(=O)N2CCC(Cc3ccccc3)CC2)cc1	Yeast UUG start-1 461.7 | Yeast UUG start-2 inactive
COC(=O)Nc1ccc(S(=O)(=O)N2CCC(C)CC2)cc1	none (no result: Wnt act)

Source: PubChem BioAssay
